Values quoted from earlier work in US20170224772A1, “COMPOSITION AND KIT FOR PREVENTION OR TREATMENT OF ARTHRITIS, AND METHOD USING THE SAME” (Samsung Electronics Co., Ltd., priority 2014, published 2017).
Like-named read-outs stand apart in the source and are kept apart here.

Settings: cited from earlier work

In the case of “CTLA4Ig fusion protein: fusion protein including an extracellular domain of CTLA4 and an Fc domain of immunoglobulin IgG1”, the in vivo half-life (adult rheumatoid arthritis patients, hypodermic injection) is given as “about 14.3 days”, the in vivo half-life (healthy individuals) is given as “about 16.7 days” and the in vivo half-life (rheumatoid arthritis patients) is given as “about 13.1 days”.
